Experimental data taken from US20130245084A1, “CALCIUM-SENSING RECEPTOR-ACTIVE COMPOUNDS” (LEO PHARMA A/S, priority 2010, published 2013).

By UniProt entry, the sequences of proteins in these tests, tags left out. Residues count along the entry.
UniProt P41180, 20-1078 limits assumed: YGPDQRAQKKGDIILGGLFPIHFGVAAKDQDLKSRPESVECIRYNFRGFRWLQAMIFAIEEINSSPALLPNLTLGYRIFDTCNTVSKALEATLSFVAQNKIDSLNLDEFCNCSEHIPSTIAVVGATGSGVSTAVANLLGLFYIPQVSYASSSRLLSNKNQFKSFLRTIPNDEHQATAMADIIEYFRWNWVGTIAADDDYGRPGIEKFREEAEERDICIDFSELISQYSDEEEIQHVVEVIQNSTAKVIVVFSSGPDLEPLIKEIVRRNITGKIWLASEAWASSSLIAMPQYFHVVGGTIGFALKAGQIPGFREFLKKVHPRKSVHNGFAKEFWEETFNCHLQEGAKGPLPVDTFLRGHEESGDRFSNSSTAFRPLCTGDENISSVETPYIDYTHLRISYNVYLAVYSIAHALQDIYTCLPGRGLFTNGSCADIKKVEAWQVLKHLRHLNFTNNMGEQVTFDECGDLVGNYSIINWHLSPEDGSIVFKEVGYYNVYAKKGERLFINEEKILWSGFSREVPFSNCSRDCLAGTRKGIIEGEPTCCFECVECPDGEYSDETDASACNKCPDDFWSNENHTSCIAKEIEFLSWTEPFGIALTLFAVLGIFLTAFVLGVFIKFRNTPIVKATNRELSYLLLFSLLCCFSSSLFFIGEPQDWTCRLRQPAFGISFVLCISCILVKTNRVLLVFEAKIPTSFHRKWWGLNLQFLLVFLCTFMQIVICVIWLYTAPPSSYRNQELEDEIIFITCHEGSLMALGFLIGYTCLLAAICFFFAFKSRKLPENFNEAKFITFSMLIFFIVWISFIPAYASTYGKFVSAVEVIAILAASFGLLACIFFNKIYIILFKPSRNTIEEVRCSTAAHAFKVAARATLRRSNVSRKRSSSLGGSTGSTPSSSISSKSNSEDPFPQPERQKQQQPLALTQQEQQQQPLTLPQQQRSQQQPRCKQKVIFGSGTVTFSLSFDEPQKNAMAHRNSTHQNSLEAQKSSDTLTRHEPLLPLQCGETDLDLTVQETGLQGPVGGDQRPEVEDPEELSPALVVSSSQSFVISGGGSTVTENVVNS

Molecular target: human CaSR (Homo sapiens, UniProt P41180)
Experiment: Functional whole cell assay (modulation of human CaSR), IP1 accumulation in CHO-K1 cells
Details: read-out: Functional whole cell assay (modulation of human CaSR); CHO-K1 cells stably expressing human CaSR, final Ca2+ 1.9 mM, IP1 HTRF; concentration giving 50% of maximum agonistic response
From the text: The assay investigates a compound's functional ability to act as a biological positive modulator on the human CaSR. Activation of the receptor expressed on CHO-K1 cells is detected through the G alpha q pathway, the activation of phospholipase C and the accumulation of intracellular inositol phosphate (IP) as described earlier [Sandrine Ferry, Bruno Chatel, Robert H. Dodd, Christine Lair, Danielle Gully, Jean-Pierre Maffrand, and Martial Ruat. Effects of Divalent Cations and of a Calcimimetic on Adrenocorticotropic Hormone Release in Pituitary Tumor Cells. Biochemical and biophysical research Communications 238, 866-873 (1997)]. The human CaSR is stably expressed on a CHO-K1 cell clone, stimulated with a basal level of calcium and challenged with the tested compound. The level of IP1 is determined using the IP-One Terbium htrf kit (Cisbio, France). CHO-K1 cells not transfected with the CaSR fail to elicit an IP1 response upon calcium and/or compound stimulation.
The ORF coding for the human CaSR (genebank: NM_000388) was acquired from Invitrogen Corp, USA and subsequently cloned into the mammalian expression vector pCDA3.1.
CHO-K1 cells were transfected using Lipofectamine according to manufacturer's protocol (400.000 cells/well were seeded in a 6-well plate and transfected after 24 hours using 2 μg DNA and 5 μl lipofectamine). After another 24 hours the cells were detached, seeded and subjected to 1 mg/ml of G-418. Following 7 days growth single clones were picked, the CaSR expression evaluated using the 5C10 antibody against CaSR, the clones with the highest expression were selected and tested for functional response. […]
On the assay day, cells were thawed, harvested and resuspended to 4*10^6 cells/ml in stimulation buffer (containing: Hepes 10 mM, MgCl2 0.5 mM, KCl 4.2 mM, NaCl 146 mM, glucose 5.5 mM, LiCl 50 mM, BSA 0.5% at pH 7.4). […] Finally the plate was read using a Perkin Elmer EnVision, according to the protocol supplied by the IP-One assay kit manufacturer. The FRET ratio was calculated by dividing the 665 nm emission signal with that of the 615 nm. […]

Row | SMILES | EC50 [nM]
1 | CC(=O)NCCNC(=O)c1ccc(C2CCCC(N[C@H](C)c3cccc4ccccc34)C2)cc1 (stereo partly drawn) | < 200
2 | C[C@@H](NC1CCCC(c2ccc(C(=O)NCCN3CCOCC3)cc2)C1)c1cccc2ccccc12 (stereo partly drawn) | 200 to 1000
3 | C[C@@H](NC1CCCC(c2ccc(C(=O)NCCN(C)C)cc2)C1)c1cccc2ccccc12 (stereo partly drawn) | 200 to 1000
